{"source": "Sander's compilation of Henry's law constants (doi:10.1021/cr60306a003)", "origin": "cited, not measured here", "assay": "Henry solubility constant Hcp at 298.15 K (mol/(m3 Pa))", "settings": "reference: Wilhelm et al. (1977); cited value", "data": [{"smiles": "CCl", "note": "[chloromethane]", "values": [{"measurement": "Henry solubility constant Hcp", "result": 0.001}]}]}
